The assay concerns RBL-2H3. The experiment in a line: Anti-inflammatory activity in DNP-IgE-stimulated rat RBL2H3 cells assessed as reduction of IL4 secretion pretreated for 10 mins followed by DNP-HSA stimulation measured after 1 hr by ELISA. Format: functional, cell-based.
Turning to `COc1ccnc(C(=O)N[C@H]2COC(=O)[C@H](Cc3ccccc3)[C@@H](OC(=O)CC(C)C)[C@H](C)OC2=O)c1O`, the Activity result is “Dose-dependent effect”.
The entry for `CCCC[C@H]1C(=O)OC[C@H](NC(=O)c2nccc(OC)c2O)C(=O)O[C@@H](C)[C@@H]1OC(=O)C(C)C` is “Dose-dependent effect”; for `CC(C)C(=O)O[C@H]1[C@H](C)OC(=O)[C@@H](NC(=O)c2cccc(NC=O)c2O)COC(=O)[C@@H]1Cc1ccccc1` it is “Dose-dependent effect”.

Values taken from ChEMBL document CHEMBL4266052, “Evaluation of Inhibitory Activities of UK-2A, an Antimycin-Type Antibiotic, and Its Synthetic Analogues against the Production of Anti-inflammatory Cytokine IL-4” (J Nat Prod, 2018).
